# Biological target: piglet hippocampal 5-HT4 receptors (Sus scrofa, UniProt Q6Q253)
# Sequences of proteins named here, by UniProt entry; tags and fusion partners are left off. Residues count along the entry.
# UniProt Q6Q253, 1-402: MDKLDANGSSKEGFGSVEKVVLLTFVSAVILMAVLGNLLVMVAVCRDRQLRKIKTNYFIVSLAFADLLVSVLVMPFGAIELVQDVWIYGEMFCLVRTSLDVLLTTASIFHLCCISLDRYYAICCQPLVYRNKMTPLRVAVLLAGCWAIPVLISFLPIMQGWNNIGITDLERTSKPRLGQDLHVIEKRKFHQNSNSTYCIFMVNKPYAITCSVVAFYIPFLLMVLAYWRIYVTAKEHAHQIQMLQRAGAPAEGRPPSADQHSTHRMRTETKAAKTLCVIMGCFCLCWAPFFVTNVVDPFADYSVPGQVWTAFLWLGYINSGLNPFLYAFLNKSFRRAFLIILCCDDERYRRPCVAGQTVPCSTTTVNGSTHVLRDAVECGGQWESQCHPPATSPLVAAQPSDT
# Experiment: Binding to piglet hippocampal 5-HT4 receptors (125I-SB-207710)
# Conditions: piglet hippocampal membranes; n=4
structure (smiles),measurement,value
CCCCN1CCC(COC(=O)c2cc(I)c(N)c3c2OCCO3)CC1 [SB-207710],Kd,0.086 ± 0.011 nM

# Reference: patent US5852014A, “Condensed indole derivatives as 5HT4 -receptor antagonists” (SmithKline Beecham p.l.c., priority 1992, dated 1998)
